Columns and labels:
[1] = target: beta-catenin/TCF4 interaction (Homo sapiens, UniProt P35222); assay: cell-based; design: host or cells: HEK293; settings: NanoBRET Abs IC50 (uM)
[2] = target: T1, full-length B-Catenin (Uniprot ID P35222) (Homo sapiens, UniProt P35222); assay: biochemical; type: binding; settings: beta-Catenin FP IC50 (nM), competition fluorescence polarization
T1 construct: 10 nM full-length B-Catenin (Uniprot ID P35222)

Protein sequences, listed by entry. Tags and fused reporters are not part of them.
UniProt P35222, whole entry: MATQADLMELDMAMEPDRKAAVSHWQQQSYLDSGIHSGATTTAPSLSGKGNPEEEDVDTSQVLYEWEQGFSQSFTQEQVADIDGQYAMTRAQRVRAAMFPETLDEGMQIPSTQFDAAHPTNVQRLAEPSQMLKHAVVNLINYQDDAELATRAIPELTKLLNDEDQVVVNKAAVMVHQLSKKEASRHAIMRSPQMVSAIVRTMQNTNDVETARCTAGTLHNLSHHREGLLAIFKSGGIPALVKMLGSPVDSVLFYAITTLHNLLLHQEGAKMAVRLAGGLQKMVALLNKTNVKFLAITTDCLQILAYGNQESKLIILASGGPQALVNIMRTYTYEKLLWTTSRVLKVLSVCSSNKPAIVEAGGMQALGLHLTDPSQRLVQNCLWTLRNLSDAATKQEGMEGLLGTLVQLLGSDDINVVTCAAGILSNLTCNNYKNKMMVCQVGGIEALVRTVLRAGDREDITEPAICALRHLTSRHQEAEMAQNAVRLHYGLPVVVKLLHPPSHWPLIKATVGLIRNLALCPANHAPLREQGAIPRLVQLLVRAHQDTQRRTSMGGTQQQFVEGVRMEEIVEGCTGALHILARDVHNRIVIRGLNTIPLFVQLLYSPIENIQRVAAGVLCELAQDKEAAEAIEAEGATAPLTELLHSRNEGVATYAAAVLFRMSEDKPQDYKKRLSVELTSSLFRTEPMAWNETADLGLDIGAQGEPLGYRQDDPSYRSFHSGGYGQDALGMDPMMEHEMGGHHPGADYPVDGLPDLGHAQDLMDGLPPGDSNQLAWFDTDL

| SMILES | IC50 [1] [µM] | IC50 [2] [nM] | IC50 ([1]; absolute IC50) [µM] |
| --- | --- | --- | --- |
| CC(=O)N1CCC[C@]12CC=CCCCC1(CCCC=CCCCOC(=O)N3CC[C@@]4(C3)NC(=O)[C@H](CCCCN(C(C)C)C(=O)CCC[C@@H](C(=O)N[C@@H](C)C(N)=O)NC(=O)[C@H](Cc3csc5ccccc35)NC(=O)[C@H](Cc3ccsc3)NC4=O)NC(=O)[C@H](Cc3ccccc3)NC(=O)[C@H](C)NC(=O)[C@H](C)NC(=O)[C@H](Cc3cccc(C(=O)O)c3)NC(=O)[C@H](CC(=O)O)NC1=O)NC(=O)[C@H](CC(C)(C)C)NC(=O)[C@H](CC(=O)O)NC2=O (relative stereo) [I-187, Ac-PL3-Asp-Npg-B5-Asp-3COOHF-Ala-Ala-Phe-iPrLys*3-PyrS2-3Thi-BztA-hGlnR*3-Ala-NH2] | 3 to 10 | < 50 |  |
| CC(=O)N1CCC[C@]12CC=CCCCC1(CCCC=CCCCOC(=O)N3CC[C@@]4(C3)NC(=O)[C@H](CCCCNC(=O)CC[C@@H](C(=O)N[C@@H](CC(C)C)C(=O)N[C@@H](CO)C(=O)N[C@@H](CC(C)C)C(N)=O)NC(=O)[C@H](Cc3csc5ccccc35)NC(=O)[C@H](Cc3ccsc3)NC4=O)NC(=O)[C@H](Cc3ccccc3)NC(=O)[C@H](C)NC(=O)C(C)(C)NC(=O)[C@H](Cc3cccc(C(=O)O)c3)NC(=O)[C@H](CC(=O)O)NC1=O)NC(=O)[C@H](CC(C)(C)C)NC(=O)[C@H](CC(=O)O)NC2=O (single isomer, unassigned) [I-465, Ac-PL3-Asp-Npg-B5-Asp-3COOHF-Aib-Ala-Phe-Lys*3-PyrS2-3Thi-BztA-GlnR*3-Leu-Ser-Leu-NH2] |  | < 50 | 1.5 to 3 |
| CC(=O)N1CCC[C@]12CC=CCCCC1(CCCC=CCCCOC(=O)N3CC[C@@]4(C3)NC(=O)[C@H](CCCCNC(=O)CC[C@@H](C(=O)N[C@@H](C)C(N)=O)NC(=O)[C@H](Cc3csc5ccccc35)NC(=O)[C@H](Cc3ccccc3C(F)(F)F)NC4=O)NC(=O)[C@H](Cc3ccccc3)NC(=O)[C@H](C)NC(=O)C(C)(C)NC(=O)[C@H](CCCCN)NC(=O)[C@H](CC(=O)O)NC1=O)NC(=O)[C@H](CC(C)(C)C)NC(=O)[C@H](CC(=O)O)NC2=O (relative stereo) [I-221, Ac-PL3-Asp-Npg-B5-Asp-Lys-Aib-Ala-Phe-Lys*3-PyrS2-2F3MeF-BztA-GlnR*3-Ala-NH2] | > 10 | 200 to 750 |  |
| CC(=O)N1CCC[C@]12CC=CCCCC1(CCCC=CCCCOC(=O)N3CC[C@@]4(C3)NC(=O)[C@H](CCCCNC(=O)CC[C@@H](C(=O)N[C@@H](C)C(N)=O)NC(=O)[C@H](Cc3csc5ccccc35)NC(=O)[C@H](Cc3ccccc3)NC4=O)NC(=O)[C@H](Cc3ccccc3)NC(=O)[C@H](C)NC(=O)C(C)(C)NC(=O)[C@H](Cc3cccc(C(=O)O)c3)NC(=O)[C@H](CC(=O)O)NC1=O)NC(=O)[C@H](CC(C)(C)C)NC(=O)[C@H](CC(=O)O)NC2=O (single isomer, unassigned) [I-279, Ac-PL3-Asp-Npg-B5-Asp-3COOHF-Aib-Ala-Phe-Lys*3-PyrS2-Phe-BztA-GlnR*3-Ala-NH2] | 3 to 10 | < 50 |  |
| CC(=O)N1CCC[C@]12CC=CCCCC1(CCCC=CCCCOC(=O)N3CC[C@@]4(C3)NC(=O)[C@H](CCCCNC(=O)CC[C@@H](C(=O)N[C@@H](C)C(N)=O)NC(=O)[C@H](Cc3csc5ccccc35)NC(=O)[C@H](Cc3ccsc3)NC4=O)NC(=O)[C@H](Cc3ccccc3)NC(=O)[C@H](CCCCN)NC(=O)C(C)(C)NC(=O)[C@H](Cc3cccc(C(=O)O)c3)NC(=O)[C@H](CC(=O)O)NC1=O)NC(=O)[C@H](CC(C)(C)C)NC(=O)[C@H](CC(=O)O)NC2=O (single isomer, unassigned) [I-454, Ac-PL3-Asp-Npg-B5-Asp-3COOHF-Aib-Lys-Phe-Lys*3-PyrS2-3Thi-BztA-GlnR*3-Ala-NH2] |  | < 50 | > 10 |
| CC(=O)N1CCC[C@]12CC=CCCCC1(CCCC=CCCCOC(=O)N3CC[C@@]4(C3)NC(=O)[C@H](CCCCNC(=O)CC[C@@H](C(=O)N[C@@H](C)C(N)=O)NC(=O)[C@H](Cc3csc5ccccc35)NC(=O)[C@H](Cc3ccsc3)NC4=O)NC(=O)[C@H](Cc3ccccc3)NC(=O)[C@H](C)NC(=O)[C@H](CO)NC(=O)[C@H](Cc3cccc(C(=O)O)c3)NC(=O)[C@H](CC(N)=O)NC1=O)NC(=O)[C@H](CC(C)(C)C)NC(=O)[C@H](CC(=O)O)NC2=O (relative stereo) [I-86, Ac-PL3-Asp-Npg-B5-Asn-3COOHF-Ser-Ala-Phe-Lys*3-PyrS2-3Thi-BztA-GlnR*3-Ala-NH2] | > 10 | 50 to 200 |  |
| CC(=O)N1CCC[C@]12CC=CCCCC1(CCCC=CCCCOC(=O)N3CC[C@@]4(C3)NC(=O)[C@H](CCCCNC(=O)CC[C@@H](C(=O)N[C@@H](C)C(N)=O)NC(=O)[C@H](Cc3csc5ccccc35)NC(=O)[C@H](Cc3ccccc3C(F)(F)F)NC4=O)NC(=O)[C@H](Cc3ccccc3)NC(=O)[C@H](C)NC(=O)[C@H](CC(C)(C)C)NC(=O)[C@H](Cc3cccc(C(=O)O)c3)NC(=O)[C@H](CC(=O)O)NC1=O)NC(=O)[C@H](CC(C)(C)C)NC(=O)[C@H](CC(=O)O)NC2=O (single isomer, unassigned) [I-99, Ac-PL3-Asp-Npg-B5-Asp-3COOHF-Npg-Ala-Phe-Lys*3-PyrS2-2F3MeF-BztA-GlnR*3-Ala-NH2] | > 10 | < 50 |  |

Results, then the compound that gave them:

| IC50 [1] [µM] | IC50 [2] [nM] | IC50 ([1]; absolute IC50) [µM] | SMILES |
| --- | --- | --- | --- |
|  | < 50 | < 1.5 | CC(=O)N1CCC[C@]12CC=CCCCC1(CCCC=CCCCOC(=O)N3CC[C@@]4(C3)NC(=O)[C@H](CCCCn3cc(nn3)C[C@@H](C(=O)N[C@@H](C)C(N)=O)NC(=O)[C@H](Cc3csc5ccccc35)NC(=O)[C@H](Cc3ccsc3)NC4=O)NC(=O)[C@H](Cc3ccccc3)NC(=O)[C@H](C)NC(=O)C(C)(C)NC(=O)[C@H](Cc3cccc(C(=O)O)c3)NC(=O)[C@H](CC(=O)O)NC1=O)NC(=O)[C@H](CC(C)(C)C)NC(=O)[C@H](CC(=O)O)NC2=O (single isomer, unassigned) [I-335, Ac-PL3-Asp-Npg-B5-Asp-3COOHF-Aib-Ala-Phe-TriAzLys*3-PyrS2-3Thi-BztA-sAla*3-Ala-NH2] |
|  | < 50 | > 10 | C[C@H](NC(=O)[C@@H]1CCC(=O)NCCCC[C@@H]2NC(=O)[C@H](Cc3ccccc3)NC(=O)[C@H](C)NC(=O)C(C)(C)NC(=O)[C@H](Cc3cccc(C(=O)O)c3)NC(=O)[C@H](CC(=O)O)NC(=O)[C@](C)(NC(=O)[C@@H]3CC=CCOc4ccccc4C(=O)N4CCC[C@@]4(C)C(=O)N[C@@H](CC(=O)O)C(=O)N3)CCCC=CCCCOC(=O)N3CC[C@@](C3)(NC2=O)C(=O)N[C@@H](Cc2ccsc2)C(=O)N[C@@H](Cc2csc3ccccc23)C(=O)N1)C(N)=O (relative stereo) [I-471, BzAm20Allyl-MePro-Asp-AllylGly-R5-Asp-3COOHF-Aib-Ala-Phe-Lys*3-PyrS2-3Thi-BztA-GlnR*3-Ala-NH2] |
| 1.5 to 3 | < 50 |  | CC(=O)N1CCC[C@]12CC=CCCCC1(CCCC=CCCCOC(=O)N3CC[C@@]4(C3)NC(=O)[C@H](CCCCNC(=O)CC[C@@H](C(=O)N[C@@H](C)C(N)=O)NC(=O)[C@H](Cc3csc5ccccc35)NC(=O)[C@H](Cc3ccsc3)NC4=O)NC(=O)[C@H](Cc3ccccc3)NC(=O)[C@H](C)NC(=O)C(C)(C)NC(=O)[C@H](Cc3cccc(C(=O)O)c3)NC(=O)[C@H](CC(=O)O)NC1=O)NC(=O)[C@H](CC(C)C)NC(=O)[C@H](CC(=O)O)NC2=O (relative stereo) [I-246, Ac-PL3-Asp-Leu-B5-Asp-3COOHF-Aib-Ala-Phe-Lys*3-PyrS2-3Thi-BztA-GlnR*3-Ala-NH2] |
|  | < 50 | 1.5 to 3 | CC(=O)N1CCC[C@]12CC=CCCCC1(CCCC=CCCCOC(=O)N3CC[C@@]4(C3)NC(=O)[C@H](CCCCn3cc(nn3)C[C@@H](C(=O)N[C@@H](C)C(N)=O)NC(=O)[C@H](Cc3csc5ccccc35)NC(=O)[C@H](Cc3ccsc3)NC4=O)NC(=O)[C@H](Cc3ccccc3)NC(=O)[C@H](C)NC(=O)[C@H](C)NC(=O)[C@H](Cc3cccc(C(=O)O)c3)NC(=O)[C@H](CC(=O)O)NC1=O)NC(=O)[C@H](CC(C)(C)C)NC(=O)[C@H](CC(=O)O)NC2=O (stereo partly drawn) [I-337, Ac-PL3-Asp-Npg-B5-Asp-3COOHF-Ala-Ala-Phe-TriAzLys*3-PyrS2-3Thi-BztA-sAla*3-Ala-NH2] |
| > 10 | 50 to 200 |  | CC[C@@H]1NC(=O)[C@]23CCN(C2)C(=O)OCCCC=CCCCC2(CCCC=CC[C@]4(CCCN4C(C)=O)C(=O)N[C@@H](CC(=O)O)C(=O)N[C@@H](CC(C)(C)C)C(=O)N2)C(=O)N[C@@H](CC(=O)O)C(=O)N[C@@H](Cc2cccc(C(=O)O)c2)C(=O)NC(C)(C)C(=O)N[C@@H](C)C(=O)N[C@@H](Cc2ccccc2)C(=O)N[C@@H](CCCCNC(=O)CC[C@@H](C(=O)N[C@@H](C)C(N)=O)NC(=O)[C@H](Cc2csc4ccccc24)NC1=O)C(=O)N3 (single isomer, unassigned) [I-268, Ac-PL3-Asp-Npg-B5-Asp-3COOHF-Aib-Ala-Phe-Lys*3-PyrS2-Abu-BztA-GlnR*3-Ala-NH2] |
| > 10 | 50 to 200 |  | CC(=O)N1CCC[C@]12CC=CCCCC1(CCCC=CCCCOC(=O)N3CC[C@@]4(C3)NC(=O)[C@H](CCCCNC(=O)C[C@@H](C(=O)N[C@@H](C)C(N)=O)NC(=O)[C@H](Cc3csc5ccccc35)NC(=O)[C@H](Cc3ccccc3C(F)(F)F)NC4=O)NC(=O)[C@H](Cc3ccccc3)NC(=O)[C@H](C)NC(=O)[C@H](C)NC(=O)[C@H](Cc3cccc(C(=O)O)c3)NC(=O)[C@H](CC(=O)O)NC1=O)NC(=O)[C@H](CC(C)(C)C)NC(=O)[C@H](CC(=O)O)NC2=O (single isomer, unassigned) [I-58, Ac-PL3-Asp-Npg-B5-Asp-3COOHF-Ala-Ala-Phe-Lys*3-PyrS2-2F3MeF-BztA-AsnR*3-Ala-NH2] |
| 3 to 10 | 50 to 200 |  | CC(=O)N1CCC[C@]12CC=CCCCC1(CCCC=CCCCOC(=O)N3CC[C@@]4(C3)NC(=O)[C@H](CCCCNC(=O)CC[C@@H](C(=O)N[C@@H](CC(C)C)C(N)=O)NC(=O)[C@H](Cc3csc5ccccc35)NC(=O)[C@H](Cc3ccccc3C(F)(F)F)NC4=O)NC(=O)[C@H](Cc3ccccc3)NC(=O)[C@H](C)NC(=O)[C@H](C)NC(=O)[C@H](CN(CC(=O)O)CC(F)(F)F)NC(=O)[C@H](CC(=O)O)NC1=O)NC(=O)[C@H](CC(C)(C)C)NC(=O)[C@H](CC(=O)O)NC2=O (relative stereo) [I-128, Ac-PL3-Asp-Npg-B5-Asp-TfeGA-Ala-Ala-Phe-Lys*3-PyrS2-2F3MeF-BztA-GlnR*3-Leu-NH2] |

From patent US20240360179A1, “STAPLED PEPTIDES AND METHODS THEREOF” (FOG PHARMACEUTICALS, INC., priority 2021, published 2024)
